Measurements from patent US20240335548A1, “MACROMOLECULES” (Starpharma Pty Ltd, priority 2011, published 2024).
Where two headings read alike, the source gives them in different places.

Legend:
[1] = Water solubility study on drug loaded dendrimers; assay type: physicochemical
Protocol: Protocol: To 30 mg of dendrimer (freeze-dried from water) was added 100 μL of deionised water. After mixing for 10 minutes, additional aliquots of water (10-30 μL per addition) were added with vortexing and incubation for 10 mins until full dissolution was obtained. This amount is represented in Table 1 as the water solubility of the dendrimer. The equivalent drug solubility is determined by multiplying the % drug loading/100 and is represented in Table 1 (column 3) as Equivalent drug solubility on dendrimer. Finally, the fold increase is obtained by dividing the Equivalent drug solubility on dendrimer by the solubility of the drug and is represented in Table 1 (column 4).

[2] = Plasma stability study: docetaxel release in mouse plasma; assay type: in vitro ADME
[3] = for Mean Liver Weights (g) (sd) / Mean Spleen Weights (g) (sd): day 16, one day after final dose
[4] = Particle sizing using Dynamic Light Scattering; assay type: physicochemical
[5] = compared with SPL9049
[6] = Toxicity studies in rats (neutropenia, hematology, microscopic changes)
[7] = deionised water, until full dissolution
[8] = equivalent drug solubility divided by solubility of the drug
[9] = water solubility x % drug loading/100
[10] = 0.5 hours, mouse plasma, 37° C.
[11] = 2.5 hours, mouse plasma, 37° C.
[12] = Day 1 (baseline, before dosing)
[13] = Day 11, dosing days 1, 8 at MTD doses

## BHALys[Lys]32[α-PEG2-DTX]32[ε-PEG1100]32 [10 (b)]
[1]; [7]
  Water solubility of dendrimer: 138 mg/mL
[1]; [8]
  Fold increase in drug solubility: 8600
[1]; [9]
  Equivalent drug solubility on dendrimer: 43 mg/mL
[2]; [10]
  Docetaxel release in plasma: 10 percentage of total docetaxel
[2]; [11]
  Docetaxel release in plasma: 21 percentage of total docetaxel
[2]; 22 hours, mouse plasma, 37° C.
  Docetaxel release in plasma: 75 percentage of total docetaxel

## BHALys[Lys]32[α-GFLG-Glu-DTX]32[ε-PEG1100]32 [15 (c)]
[1]
  Equivalent drug solubility on dendrimer: 45 mg/mL
  Fold increase in drug solubility: 9000
  Water solubility of dendrimer: 180 mg/mL

## BHALys[Lys]32[α-4-HSBA-4Aba-DTX]32[ε-PEG1100]32 [1 (b)]
[1]; [7]
  Water solubility of dendrimer: 186 mg/mL
[1]; [8]
  Fold increase in drug solubility: 4800
[1]; [9]
  Equivalent drug solubility on dendrimer: 24 mg/mL
[2]; [10]
  Docetaxel release in plasma: 0 percentage of total docetaxel
[2]; [11]
  Docetaxel release in plasma: 3 percentage of total docetaxel
[2]; 22 hours, mouse plasma, 37° C.
  Docetaxel release in plasma: 14.5 percentage of total docetaxel

## BHALys[Lys]32[α-DGA-DTX]32[ε-PEG1100]32 [Example 3 (b)]
[1]
  Fold increase in drug solubility: 5600
[3]; [12]
  Mean Lymphocytes (sd): 5.79 (1.53) × 10^9 cells/L
  Mean Neutrophils (sd): 1.01 (0.53) × 10^9 cells/L
  Mean WBC (sd): 5.79 (1.53) × 10^9 cells/L
[3]; [13]
  Mean Lymphocytes (sd): 3.99 (0.29) × 10^9 cells/L
  Mean Neutrophils (sd): 1.84 (0.18) × 10^9 cells/L
  Mean WBC (sd): 3.99 (0.29) × 10^9 cells/L
[3]
  Mean Liver Weights (g) (sd): 0.763 g
  Mean Spleen Weights (g) (sd): 0.077 g

## BHALys[Lys]32[α-GILGVP-Glu-DTX]32[ε-PEG1100]32 [Example 16]
[1]
  Equivalent drug solubility on dendrimer: 59 mg/mL
  Fold increase in drug solubility: 11800
  Water solubility of dendrimer: 205 mg/mL
[2]
  Docetaxel release in plasma: 0 percentage of total docetaxel
  release of docetaxel in plasma: do not substantially release docetaxel in plasma

## BHALys[Lys]32[α-4-HSBA-Cp-DTX]32[ε-PEG1100]32 [Example 4 (c)]
[1]
  Fold increase in drug solubility: 4400
[3]; [12]
  Mean Lymphocytes (sd): 4.95 (2.25) × 10^9 cells/L
  Mean Neutrophils (sd): 1.07 (0.57) × 10^9 cells/L
  Mean WBC (sd): 4.95 (2.25) × 10^9 cells/L
[3]; [13]
  Mean Lymphocytes (sd): 5.37 (1.72) × 10^9 cells/L
  Mean Neutrophils (sd): 1.27 (0.64) × 10^9 cells/L
  Mean WBC (sd): 5.37 (1.72) × 10^9 cells/L
[3]
  Mean Liver Weights (g) (sd): 0.762 g
  Mean Spleen Weights (g) (sd): 0.087 g

## BHALys[Lys]32[α-GGG-Glu-DTX]32[ε-PEG1100]32 [14 (c)]
[1]
  Equivalent drug solubility on dendrimer: 57 mg/mL
  Fold increase in drug solubility: 11400
  Water solubility of dendrimer: 183 mg/mL

## BHALys[Lys]32[α-GILGVP-Glu-DTX]32[ε-t-PEG2300]32 [Example 17]
[1]
  Equivalent drug solubility on dendrimer: 67 mg/mL
  Fold increase in drug solubility: 13400
  Water solubility of dendrimer: 373 mg/mL
[2]
  release of docetaxel in plasma: do not substantially release docetaxel in plasma

## BHALys[Lys]32[α-TDA-DTX]32[ε-PEG1100]32 [Example 8 (c)]
[1]
  Fold increase in drug solubility: 8200
[3]; [12]
  Mean Lymphocytes (sd): 6.59 (0.62) × 10^9 cells/L
  Mean Neutrophils (sd): 0.93 (0.51) × 10^9 cells/L
  Mean WBC (sd): 6.59 (0.62) × 10^9 cells/L
[3]; [13]
  Mean Lymphocytes (sd): 4.27 (0.35) × 10^9 cells/L
  Mean Neutrophils (sd): 1.76 (0.15) × 10^9 cells/L
  Mean WBC (sd): 4.27 (0.35) × 10^9 cells/L
[3]
  Mean Liver Weights (g) (sd): 0.780 g
  Mean Spleen Weights (g) (sd): 0.092 g
[4]
  particle size, range of concentration dependent averages: 8.9-10.1 nm

## BHALys[Lys]32[α-PDT-DTX]32[ε-PEG1100]32 [9 (b)]
[1]; [7]
  Water solubility of dendrimer: 63 mg/mL
[1]; [8]
  Fold increase in drug solubility: 4000
[1]; [9]
  Equivalent drug solubility on dendrimer: 20 mg/mL
[2]; [10]
  Docetaxel release in plasma: 0.5 percentage of total docetaxel
[2]; [11]
  Docetaxel release in plasma: 1.5 percentage of total docetaxel
[2]; 22 hours, mouse plasma, 37° C.
  Docetaxel release in plasma: 1 percentage of total docetaxel

## BHALys[Lys]32[α-DGA-Cabazitaxel]32†[ε-PEG˜2100]32‡ [SPL9048]
[5]
  stability in solution (e.g. with regard to precipitation): increased stability in solution
[6]; 1 mg/kg
  neutrophil rebound at day 14: virtually no rebound
[6]; 1 mg/kg, male and female rats, FIGS. 5 and 6
  neutropenia (neutrophil values, day 7 in particular): lesser/no dip in values
[6]; 2.5 mg/kg
  treatment-related microscopic changes: Treatment-related microscopic changes were observed in the thymus, bone marrow, and spleen
[6]; 2.5 mg/kg active agent
  neutropenia at day 5: less neutropenic
[6]; 2.5 mg/kg, by Day 2 through Day 7
  test article related hematology changes: decreases in white blood cells, neutrophils, lymphocytes, monocytes, eosinophil, platelets, and reticulocytes
